From BindingDB's records for doi:10.1007/pl00005315 (Eli Lilly, 1999) come the findings set out here.

Sequences of proteins named here, by UniProt entry; tags and fusion partners are left off.
UniProt P30994, whole entry: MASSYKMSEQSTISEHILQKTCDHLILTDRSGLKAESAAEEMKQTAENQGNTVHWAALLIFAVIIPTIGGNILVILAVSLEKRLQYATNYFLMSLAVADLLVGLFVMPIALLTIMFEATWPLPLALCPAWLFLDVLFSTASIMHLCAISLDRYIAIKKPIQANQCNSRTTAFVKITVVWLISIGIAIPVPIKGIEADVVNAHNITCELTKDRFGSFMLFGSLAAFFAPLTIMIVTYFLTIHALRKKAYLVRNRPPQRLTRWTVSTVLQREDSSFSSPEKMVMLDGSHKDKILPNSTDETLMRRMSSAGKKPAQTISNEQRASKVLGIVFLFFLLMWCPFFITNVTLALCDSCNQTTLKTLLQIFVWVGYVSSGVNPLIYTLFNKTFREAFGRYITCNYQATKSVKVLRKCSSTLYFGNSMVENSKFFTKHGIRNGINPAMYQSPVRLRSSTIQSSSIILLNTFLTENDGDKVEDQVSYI
UniProt P28223, whole entry: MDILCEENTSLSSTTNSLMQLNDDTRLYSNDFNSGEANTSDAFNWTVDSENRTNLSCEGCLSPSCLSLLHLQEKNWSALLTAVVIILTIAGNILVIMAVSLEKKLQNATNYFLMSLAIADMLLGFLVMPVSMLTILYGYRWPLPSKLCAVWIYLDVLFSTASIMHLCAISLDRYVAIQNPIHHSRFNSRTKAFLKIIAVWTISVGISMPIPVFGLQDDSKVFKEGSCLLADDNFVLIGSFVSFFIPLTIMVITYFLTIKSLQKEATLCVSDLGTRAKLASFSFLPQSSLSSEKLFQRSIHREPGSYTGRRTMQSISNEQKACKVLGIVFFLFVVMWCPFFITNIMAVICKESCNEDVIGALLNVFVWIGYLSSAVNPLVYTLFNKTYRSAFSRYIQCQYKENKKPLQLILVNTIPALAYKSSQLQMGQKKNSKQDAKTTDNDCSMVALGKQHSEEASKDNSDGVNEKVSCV

Each structure is given as a SMILES string.

Assay [1] concerns the target 5-hydroxytryptamine receptor 2B (Rattus norvegicus, UniProt P30994).
The target in assay [2] is 5-hydroxytryptamine receptor 2A (Homo sapiens, UniProt P28223).

The Ki is the dissociation constant of the complex between target and ligand, obtained from inhibition or displacement. Low values mean tighter binding, high ones weaker binding. As for `COc1ccc(OC)c(CC(C)N)c1` (configuration not stated) [2-(2,5-Dimethoxy-phenyl)-1-methyl-ethylamine], the figures for the inhibition constant (Ki) in assay [1] and in assay [2] were 950 nM and 211 nM, respectively.
